Antibody variant affinities, Ab-14 light chain, assay B

Values reported by Li et al. 2023, doi:10.1038/s41467-023-39022-2 (FLAb copy).

Target peptide (SARS-CoV-2 spike, HR2 region): PDVDLGDISGINAS

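These sequences belong to a second round, designed from the earlier measurements on random variants of the parent. Their group label is 14L_En_Gibbs (En: ensemble of fine-tuned language models; Gibbs: Gibbs sampling). AlphaSeq pools MATa yeast showing the antibodies with MATalpha yeast showing the peptide. The frequency of each diploid, read from paired DNA barcodes, reflects how well the two displayed proteins bind. A regression on co-assayed BCL2-family reference pairs converts the normalised counts of each replicate to an apparent Kd. The assay was run in six technical replicates.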

Each scFv is VH, three GGGGS repeats, VL, as in the parent Ab-14, and differs from it in the CDRs of the light chain only.
VH: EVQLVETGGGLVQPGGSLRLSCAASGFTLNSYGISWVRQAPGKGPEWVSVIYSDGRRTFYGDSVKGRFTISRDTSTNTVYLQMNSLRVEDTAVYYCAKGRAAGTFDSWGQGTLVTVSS
VL: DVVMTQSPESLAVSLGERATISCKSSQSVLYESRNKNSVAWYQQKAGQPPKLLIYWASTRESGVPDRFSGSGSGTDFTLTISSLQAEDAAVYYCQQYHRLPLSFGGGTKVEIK

Each variant is given by its three light chain CDRs, as the data file delimits them; those of the parent are KSSQSVLYESRNKNSVA, WASTRES, QQYHRLPLS. Values are log10 of the apparent Kd in nM; lower means stronger binding. "n.d." means that the variant was in the library but no mating with the target was seen in that replicate; the authors take this as a sign of poor binding, and no number exists.

CDR-L1,CDR-L2,CDR-L3,"replicates, log10 nM",control signals
NLMGQGDHSIKHANSIA,NVDLVDM,QQYAHLPLS,1.23 1.97 1.84 1.20 1.36 1.61,0 of 18
NIRGVEFESAMMGNAVA,GVSLVEA,QQYFRLPLH,1.59 1.48 1.01 0.67 1.33 1.20,1 of 18 (2.34)
HINGLEDQFPDSWNSIA,QETLRNL,QQYFSLPLS,2.68 1.97 2.20 1.86 2.47 3.56,1 of 18 (2.47)
VFQQQWDGHTDTHNSVA,NVDHKME,QQYYRLPLL,0.52 0.37 0.21 0.34 0.11 0.51,2 of 18 (2.11)
VLQFDHDEWGMYCDNIA,DESCREP,QQYFHLPLI,n.d. n.d. n.d. 1.91 2.32 n.d.,0 of 18
HVHSLMAIWQEISNNVA,DAQNRNA,QQYFRLPLA,1.29 n.d. n.d. n.d. 1.81 n.d.,0 of 18
SLHLYTNTEENNNNSIA,EKSYRAY,QQYAHLPLV,1.55 1.58 1.27 1.66 1.58 1.44,2 of 18 (2.49)
QLDHQLQYDDASKKAVA,EMTEVTT,QQYHRLPLT,1.51 1.70 1.89 1.93 3.23 2.33,1 of 18 (2.46)
KLYYDAAQRVQDAENIA,EKTESYQ,QQYHRLPLS,n.d. n.d. n.d. 2.55 4.05 2.61,1 of 18 (2.46)
NMRLNEGEIAMHGYAIA,GVDLRAA,QQYARLPLH,0.77 0.79 0.89 0.62 0.74 0.95,0 of 18
KLNDDFQVYERNNGSVA,DAIISEA,QQYARLPLI,0.65 0.72 0.68 0.69 1.07 1.07,2 of 18 (2.44)
KLDMFIPSQWEWDASIA,GATLRHT,QDYARLPLS,1.25 1.48 0.93 1.24 0.59 1.81,1 of 18 (3.19)
STMHLSFGHPYEQANVA,DASNKVS,QQYHRLPLG,0.81 0.07 0.24 0.04 0.02 0.28,1 of 18 (2.60)
SMHPFDKAIGKGTNNIA,HVSVRAS,QQYARLPLV,1.78 2.88 2.51 2.17 1.55 1.64,0 of 18
NMGGTKEEQSNEINNIA,EMNERFA,QQYFQLPLS,1.15 1.61 1.06 1.21 1.23 1.25,4 of 18 (2.60)
TITGMVEEIETRQKNIA,EGEFRCM,QQYSRLPLS,n.d. 2.22 n.d. 2.82 1.65 2.32,0 of 18
SVSNLGMVPSVWENSIA,DTEIVEE,QQYSRLPLL,0.75 1.04 0.37 0.65 0.77 0.95,0 of 18
HIDSQEVGTIGAESNVA,ETNTLLY,QQYSKLPLM,0.97 1.13 1.11 1.18 0.84 1.59,2 of 18 (3.06)
QITEEQSMRTEGNWNIA,QAEQKVH,QQYNRLPLA,0.61 0.51 0.29 0.62 0.50 0.91,0 of 18
LGNAEDQGDDRGMNNIA,GGDTKMA,QQYHRLPLS,-0.09 -0.45 -0.08 -0.40 0.13 -0.20,3 of 18 (2.05)
KLTFYMQGSNAMDNSIA,QTNIYHE,QQYGRLPLV,n.d. n.d. n.d. n.d. n.d. n.d.,0 of 18
KLRWPCTTDMNRMSSIA,ESEVAND,QQYAHLPLS,1.99 n.d. n.d. 2.00 3.44 2.40,0 of 18
VLPDHELMLESQIHSIA,NETKRME,QQYSRLPLV,0.24 0.42 0.27 0.29 0.50 0.41,2 of 18 (1.70)
NITQIFDNMGDQRANVA,NGETLFH,QQYARLPLL,0.68 0.38 0.32 0.58 0.38 0.59,0 of 18
HMKDELGLGPQTYHSVA,HASILEP,QQYYRLPLM,1.27 0.37 0.76 0.24 0.58 0.67,2 of 18 (2.71)
KLSMNCTGQLNQGNSVA,GATEACI,QQFARLPLS,1.65 2.06 2.11 1.38 1.49 1.64,2 of 18 (2.52)
KVSIFMLTMDNAWSSIA,NSAATRT,QYYQRLPLS,n.d. n.d. n.d. 1.44 n.d. n.d.,0 of 18
QISLNGWDGTKKEYAVA,EGTKRDA,QQYSRLPLS,0.62 0.45 0.27 0.35 0.37 0.51,1 of 18 (4.00)
KLRREADGWNRNEWNIA,DADYRGA,QQYSHLPLC,n.d. n.d. n.d. n.d. n.d. n.d.,2 of 18 (2.48)
KLQWYNTYATYSAQNIA,DGAQRLN,QQYMRLPLM,0.47 -0.17 -0.25 -0.19 0.01 -0.17,0 of 18
QLAVNRLMEYTMNNAIA,GKTLRVD,QQYARLPLS,-0.09 0.63 -0.22 -0.38 -0.30 0.12,1 of 18 (2.37)
NLNDSDMYAQIMTDNIA,QDTQRNE,QQYAKLPLS,n.d. n.d. n.d. n.d. n.d. n.d.,0 of 18
HVPNYTENFMSAKQNVA,DQSAKTS,QQYDRLPLA,1.74 2.23 1.75 2.15 1.50 2.17,1 of 18 (2.81)
HLSLRLSYGNMLQKAVA,EVQARVT,QQYARLPLL,n.d. n.d. n.d. n.d. n.d. 2.06,0 of 18
KLSLSMSYSWEGTRHIA,NGSNRCH,QQYHRLPLI,1.41 1.41 1.04 1.62 1.34 1.55,1 of 18 (2.02)

Extract of 2 entries:

CDR-L1,CDR-L2,CDR-L3,"replicates, log10 nM",control signals
QISLNGWDGTKKEYAVA,EGTKRDA,QQYSRLPLS,0.62 0.45 0.27 0.35 0.37 0.51,1 of 18 (4.00)
VFQQQWDGHTDTHNSVA,NVDHKME,QQYYRLPLL,0.52 0.37 0.21 0.34 0.11 0.51,2 of 18 (2.11)

The range of this assay differs from that of the first round, and the authors advise against merging the two. Of ten entries with the parent sequence, four were seen in most replicates (averages 0.34 to 2.37), three in one and three in none, so single entries are noisy. In the paper, a design with two or fewer of six values counts as a poor binder. Background: pairings of all light chain designs with three empty control strains gave a value in 4% of cases (median 2.64, 5th percentile 1.59). Values in that range, when seen in few replicates, are hard to tell from nonspecific mating. Also given: how often the same scFv was detected with the empty control strains, with their mean in brackets.